{
  "source": "paper PMC3560935",
  "about": "(Anesthesiology, 2011)",
  "key": {"[1]": {"test_system": "Swiss-Webster mice", "settings": "mouse, in vivo"}, "[2]": {"test_system": "Swiss-Webster mice", "settings": "mouse, in vivo", "remark": "listed apart in the source"}, "[3]": {"test_system": "CYP3A4/5", "settings": "humans; cited from earlier work"}},
  "data": [
    {"substance": "Buprenorphine", "values": [
      {"measurement": "effect on minute ventilation (in words)", "setting": "[1]; Swiss-Webster", "result": "Neither buprenorphine nor B3G affected"},
      {"measurement": "effect on respiratory rate (in words)", "setting": "[1]", "result": "did not have a significant effect"},
      {"measurement": "effect on tidal volume (in words)", "setting": "[1]", "result": "neither compound had an effect"},
      {"measurement": "total locomotor activity compared to control / sedation (in words)", "setting": "[2]", "result": "did not cause a decrease"},
      {"measurement": "share of N-dealkylation to norbuprenorphine catalyzed by CYP3A4/5", "setting": "[3]", "result": "80–90%"}
    ]}
  ]
}
